Measured values published in US20050175695A1, “Carvedilol free base, salts, anhydrous forms or solvates thereof, corresponding pharmaceutical compositions, controlled release formulations, and treatment or delivery methods” (priority 2003, published 2005).

Legend:
[1] = Solubility in water of carvedilol free base and monocitrate salt over time (Table 11); assay type: physicochemical; conditions: 25° C., 48 hr
[2] = Aqueous solubility at 25° C. of carvedilol free base and three salts (Table 13); assay type: physicochemical

Molecule	pH of the filtered solution [1]	pH of the solution ([2]; 1 hr)	pH of the solution ([2]; 4 hr)	pH of the solution ([2]; 24 hr, HBr)	pH of the solution ([2]; 24 hr)
Carvedilol Monocitrate Monohydrate [Carvedilol Mono-Citrate Salt]	3.0				
COc1ccccc1OCCNCC(O)COc1cccc2[nH]c3ccccc3c12 (centres unmarked) [HBr salt, Carvedilol HBr]		6.1	6.3	6.2	
COc1ccccc1OCCNCC(O)COc1cccc2[nH]c3ccccc3c12.O=P(O)(O)O (centres unmarked) [Phosphate salt, carvedilol phosphate]		3.0	3.0		3.0
COc1ccccc1OCCNCC(O)COc1cccc2[nH]c3ccccc3c12 (centres unmarked) [Carvedilol Free Base]					(pH = 7.0)

Where a name gives a salt, the structure may show the parent alone.
